The results in this text go back to publication PMC7280195, “Simple ammonium salts acting on sigma-1 receptors yield potential treatments for cancer and depression” (Scientific Reports, 2020).

The chains behind the UniProt entries cited, without tags or fusion partners.
UniProt Q5BJF2, whole entry: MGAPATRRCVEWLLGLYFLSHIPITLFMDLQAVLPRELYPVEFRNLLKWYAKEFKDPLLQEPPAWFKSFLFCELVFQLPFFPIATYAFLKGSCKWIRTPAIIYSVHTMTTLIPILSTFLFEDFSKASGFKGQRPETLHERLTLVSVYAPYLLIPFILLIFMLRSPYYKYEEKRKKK

This assay addresses sigma-2 receptor (Homo sapiens, UniProt Q5BJF2). The assay can be described thus: Sigma-2 receptor competition binding, [3H] DTG, membranes from MCF7 cells. As to conditions: competition with [3H] DTG; for σ-2 R affinity pKi ± SEM (n): * = Hill slope not unity; for Ki: read-out: σ-2 R affinity Ki.
[1] abbreviates: tested form: ammonium salt (counterion not stated).

Read-outs that look alike come from different tables or passages of the source.

In general, Ki refers to a measure of affinity in units of concentration, obtained from inhibition or displacement. Consider `NC12CC3CC(CC(C3)C1)C2`, for which, where the note is “tested form: HCl”, the σ-2 R affinity pKi ± SEM (n) was 5.04 ) and the Ki was found to be 9.1 µM.

`C[N+](C)(C)C`: the “σ-2 R affinity pKi ± SEM (n)” value is <3 (3).

In the case of `CCCCN(CCCC)CCCC`, under setting [1], the σ-2 R affinity pKi ± SEM (n) was 5.5 ) and the Ki worked out at 3 µM.
